# Reference: patent US9067894B1, “Compound, composition, and method of activating GIRK potassium channel and use of same for treating conditions of interest” (Vanderbilt University, priority 2013, dated 2015)
# Biological target: T1, GIRK1/4 (Homo sapiens, UniProt P48544+P48549)
# T1 construct: expressed in transfected cells; host or cells: HEK-293
# T1 sequence (P48549 1-501): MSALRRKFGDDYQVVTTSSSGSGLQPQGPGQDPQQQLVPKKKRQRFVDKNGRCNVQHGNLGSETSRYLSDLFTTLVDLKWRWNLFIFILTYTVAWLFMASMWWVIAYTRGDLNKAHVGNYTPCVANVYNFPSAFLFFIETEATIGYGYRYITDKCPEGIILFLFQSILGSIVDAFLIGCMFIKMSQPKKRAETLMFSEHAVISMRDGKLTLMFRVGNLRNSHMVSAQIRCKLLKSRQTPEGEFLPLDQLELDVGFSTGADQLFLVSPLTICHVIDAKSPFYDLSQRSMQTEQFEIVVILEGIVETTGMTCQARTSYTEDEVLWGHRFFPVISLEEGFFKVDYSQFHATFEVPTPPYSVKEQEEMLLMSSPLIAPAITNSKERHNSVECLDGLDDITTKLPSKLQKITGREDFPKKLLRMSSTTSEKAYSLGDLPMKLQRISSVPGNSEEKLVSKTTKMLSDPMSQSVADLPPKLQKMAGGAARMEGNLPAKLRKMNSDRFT
# T1 sequence (P48544 1-419): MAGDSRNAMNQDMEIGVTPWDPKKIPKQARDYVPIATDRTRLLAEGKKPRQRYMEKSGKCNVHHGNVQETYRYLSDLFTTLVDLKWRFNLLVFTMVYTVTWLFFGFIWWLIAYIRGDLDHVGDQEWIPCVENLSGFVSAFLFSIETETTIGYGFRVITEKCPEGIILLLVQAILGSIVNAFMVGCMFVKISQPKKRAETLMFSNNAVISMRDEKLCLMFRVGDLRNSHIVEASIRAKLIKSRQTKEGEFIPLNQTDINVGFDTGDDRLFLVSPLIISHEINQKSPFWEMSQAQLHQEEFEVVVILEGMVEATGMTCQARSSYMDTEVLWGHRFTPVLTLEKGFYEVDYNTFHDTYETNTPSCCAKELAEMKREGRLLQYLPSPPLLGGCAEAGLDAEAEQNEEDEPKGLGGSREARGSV
# Assay: Whole-cell voltage-clamp, GIRK1/4-expressing HEK-293 cells
# Format: cell-based
# Details: cell line GIRK1-4; average ± SEM
# Description: Cell Line Construction and Cell Culture. HEK-293 cells co-expressing human GIRK1/2 and rat mGlu8 were generated as previously described (Niswender et al., 2008). A HEK-293 cell line (ATCC, Manassas, Va.) expressing human GIRK1 and human GIRK2 was constructed by transfecting HEK-293 cells with GIRK1 and GIRK2 (Origene, Rockville, Md.) cloned into the pBudCE4.1 vector (Life Technologies, Carlsbad, Calif.) using FuGene 6 (Promega, Madison, Wis.) transfection reagent. […]
# A single-cell suspension of HEK-293 cells stably transfected with the appropriate ion channels were plated into TC-treated 35 mm polystyrene dishes at ˜15% confluence and incubated overnight in a 5% CO2 cell culture incubator at 37° C. […] Whole cell currents were recorded in 20K extracellular solution at −70 mV using a Pico 1 amplifier (Tecella, Foothill Ranch, Calif.) controlled by WINWCP 4.X (University of Strathclyde, Glasgow, Scotland, UK). […] One day after transfection, cells were plate into 35 mm polystyrene dishes, incubated and recorded as described above. […]
# Voltage-clamp data were analyzed by converting current amplitudes to current density by dividing by each cell's membrane capacitance estimated from capacitance compensation. […]
structure (smiles),measurement,value
"Cc1cc(NC(=O)Nc2ccc(F)c(F)c2)n(-c2ccccc2)n1 [VU0456810, 1-(3,4-difluorophenyl)-3-(3-methyl-1-phenyl-1H-pyrazol-5-yl)urea]",EC50,1400 ± 1200 nM
